## Apparent affinities of Ab-14 variants for a coronavirus HR2 peptide

The measurements come from Engelhart et al. 2022 (doi:10.1038/s41597-022-01779-4) through the FLAb antibody collection.

Target peptide (SARS-CoV-2 spike, HR2 region): PDVDLGDISGINAS

Ab-14 is the parent antibody, in scFv form: VH, then three GGGGS repeats, then VL. The light chain is unchanged in all variants.
VH: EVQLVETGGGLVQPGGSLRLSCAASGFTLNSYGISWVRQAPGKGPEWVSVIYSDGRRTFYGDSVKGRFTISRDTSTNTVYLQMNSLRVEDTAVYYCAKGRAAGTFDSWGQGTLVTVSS
VL: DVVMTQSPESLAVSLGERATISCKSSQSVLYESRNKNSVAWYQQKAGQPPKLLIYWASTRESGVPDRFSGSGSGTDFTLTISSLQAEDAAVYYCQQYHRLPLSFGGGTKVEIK

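Phage display of a naive human antibody library on the peptide gave the parent. Variants in AAYL49 differ from the parent at up to three CDR positions; double and triple changes were sampled at random. The assay is AlphaSeq: two haploid yeast populations carry antibody and antigen on their surface. After mating in shaken culture at 30 °C for 16 h, diploids were selected and their barcode pairs sequenced. A regression on co-assayed BCL2-family reference pairs converts the normalised counts of each replicate to an apparent Kd. Each pool was mated in three replicate cultures.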

The parent's heavy chain CDRs are GFTLNSYGIS, VIYSDGRRTFYGDSVK, GRAAGTFDS; each variant's own CDRs replace them letter for letter.
The read-out is the apparent dissociation constant on a log10 scale (nM): the lower, the stronger.
The mean shown is taken over the replicates in which the pair was detected.
A pair that was not seen in any replicate is written "no signal"; this usually means weak binding, but a binder can also be missed.
Entries are sorted by rising average, undetected variants last.
Background: pairings of library AAYL49 with three empty control strains gave a value in 15% of cases (median 4.06, 5th percentile 2.83). Values in that range, when seen in few replicates, are hard to tell from nonspecific mating. Also given: how often the same scFv was detected with the empty control strains.

CDR-H1	CDR-H2	CDR-H3	mean, log10 nM	replicates with signal	control signals
TFTLNSYGIS	VIYSDGRRTFYGDSVK	GELAGTFDS	1.16	3 of 3	1 of 9
GFTLNSYGIS	VIYSDGRRTFYGDSVK	GKAAGYFIS	1.16	3 of 3	0 of 9
GFTLNSYGIS	VIYSDGRREFMTDSVK	GRAAGTFDS	1.25	3 of 3	5 of 9
GFTLNSYGMS	VIYSDGRRTFYGDSVK	GRAAGWADS	1.40	3 of 3	1 of 9
GFTLNNYGIS	VIYSDGRRTFYRDSVK	GRAAGTFDS	1.73	3 of 3	3 of 9
PFTLNSYGIS	VIYSDGRRTFYGDSVK	GRAAGTFPS	2.10	3 of 3	1 of 9
GFTLNSYGIS	VIYSDGRRTFYDDSVK	GREAGTFDS	2.12	2 of 3	0 of 9
MFELNSYGIS	VIYSDGRRTFYGDSVK	GRAAVTFDS	2.61	3 of 3	3 of 9
GFTTTSYGIS	VIYSDGRRTFYGDSVK	GRAAGTWDS	2.87	3 of 3	1 of 9
GFTLNSDGIS	VIYSDGRRTFYGNMVK	GRAAGTFDS	3.06	1 of 3	2 of 9
GYTLNKYGIS	VIYSDGRRTFYGDSVK	GCAAGTFDS	3.07	3 of 3	1 of 9
GFTLNSYGIS	VIFSDGRRTFYGDMVK	GRAAGTWDS	3.16	3 of 3	0 of 9
GNTLLSYGIS	VIYSDGRRTFYGDSVK	RRAAGTFDS	3.20	3 of 3	3 of 9
GLTLNSYGIS	VIYSDGRRTFYGDSVK	LRAAGKFDS	3.37	3 of 3	1 of 9
GFTLNSYGIS	VIYSSGRRTFYGDSVK	QRAAGTFDS	3.39	1 of 3	0 of 9
GFTLNSYGIS	VIASDGRRTFYGDSVK	GRFAGTFDS	3.40	2 of 3	1 of 9
GFTLNGYGIS	VIYSDGRRTFYGDCVK	GTAAGTFDS	3.42	3 of 3	3 of 9
GFTLNSYGIS	VIYSDGRSTDYGDSVK	GRAAGTFIS	3.45	1 of 3	1 of 9
GLTLNSYGIS	VIYSDGRRRFYGDSVK	GRAAGTQDS	3.45	3 of 3	4 of 9
GFTLNSYGIS	VIYSDGRRTFRGDSKK	GRSAGTFDS	3.51	1 of 3	3 of 9
GFTLNSYGIS	VIYSDGRVIFYGDSVK	GRAAGTFDS	3.63	1 of 3	2 of 9
GFTKNSYGIS	VIYSDGRRTFYGDSPK	GWAAGTFDS	3.74	1 of 3	2 of 9
GFPLNSYGIS	VIYSDGRRTFYGSSVK	WRAAGTFDS	4.03	1 of 3	0 of 9
GFTLNSYGIS	VIYSDGRRTFYGDSVV	GRNAGTCDS	4.18	3 of 3	2 of 9
GFTLNSYGIS	VIYSDQRRNFKGDSVK	GRAAGTFDS	4.27	1 of 3	3 of 9
GFTLNSYGIS	VIYSDGRNTFYGDSVY	GRAWGTFDS	4.36	2 of 3	1 of 9
GFFLNSYGIS	VMYSDGRRTQYGDSVK	GRAAGTFDS	4.37	2 of 3	3 of 9
GFTLNSYGIS	VIYSDSLRTFYGDSVK	GRAAGTFDG	4.38	2 of 3	6 of 9
GFTLNSYGIS	VIYSDGRRQFRFDSVK	GRAAGTFDS	4.40	2 of 3	1 of 9
GFAHNSYGIS	VIYSDGRRTFYGDSVK	GRAAGTFDS	4.46	2 of 3	0 of 9
GFALNSYGIS	VIYSQGRRTFYGDSVK	GRAAGWFDS	4.50	2 of 3	5 of 9
GFGLNSYGIS	VIESDGRRTFYGDSVN	GRAAGTFDS	4.56	2 of 3	1 of 9
GFTLNSYGIS	VIYSDGRRLFYGDSVP	GRAAPTFDS	4.58	3 of 3	8 of 9
EFTLNSWGIS	VIYSDGRWTFYGDSVK	GRAAGTFDS	4.66	1 of 3	2 of 9
LFTLNSYGIL	VIYSDGRRTFYGDSVK	PRAAGTFDS	4.93	1 of 3	0 of 9
GFTLNSYGIS	VINSDGRRTFMGDSVH	GRAAGTFDS	5.07	1 of 3	4 of 9
QFTLNSYTIS	VIYSDKRRTFYGDSVK	GRAAGTFDS	5.07	2 of 3	3 of 9
GFILNVYGIS	VIYSDGRRTFYGDSVK	GRAAGTFYS	5.20	1 of 3	3 of 9
GFTLMWYGIS	VIYSDGRRTFYGDSVC	GRAAGTFDS	5.27	2 of 3	0 of 9
GFTGNSYRIS	VIYSDGRRTFYGDSVK	GREAGTFDS	5.56	1 of 3	1 of 9
GFTANSYGIS	VIYSDGRRTFYGDRVK	GRAAGTFDW	no signal	0 of 3	2 of 9
GFTLNSYGVS	VIYSWGRRTFYGDSVK	GRAAGTFHS	no signal	0 of 3	0 of 9
GFTLNSYGIS	VIYSDGRRTFYGDEVK	GRKGGTFDS	no signal	0 of 3	2 of 9
YFTLNSYGIS	VIYEDGRRYFYGDSVK	GRAAGTFDS	no signal	0 of 3	0 of 9
GFTENSYGIS	VIYSDGRRTFYTDSVK	GRAAGTFDS	no signal	0 of 3	0 of 9
GFTLFSLGIS	VIYSDGRRTFYGDSVK	SRAAGTFDS	no signal	0 of 3	3 of 9
GFTLNSYGIS	VIYSDGRRTFYGDSVK	GRAAQTFDE	no signal	0 of 3	1 of 9
GFTLNSYGIS	VIYSQGRRTFYGDSVK	GRAAGTFFH	no signal	0 of 3	1 of 9
GFTLNSYGIS	VIYSDGRRTFYGDSAN	GRGAGTFDS	no signal	0 of 3	2 of 9
VFTLNSYGIS	VIYSDGRRTFYGDSVK	SRAAFTFDS	no signal	0 of 3	0 of 9
VFTLNSYGIS	VIYSDGRRTHYGDTVK	GRAAGTFDS	no signal	0 of 3	0 of 9
GFTLNSYGIS	VIYEFGRRTFYGDSVK	GRCAGTFDS	no signal	0 of 3	0 of 9
GFTLNSYGIW	VIKSDGRRTFYGDSVK	GRAAGIFDS	no signal	0 of 3	1 of 9
GFQGNSYGIS	VIYSDGRRTFYGDSVK	GRAAYTFDS	no signal	0 of 3	0 of 9
GVTLNSYGIS	VIYSDGRRTFYGDSVK	ARCAGTFDS	no signal	0 of 3	3 of 9
GFTLNSYEMS	VIYSDGRRTFYMDSVK	GRAAGTFDS	no signal	0 of 3	0 of 9
GFTCNSYGIS	MIYSDGRRTFYEDSVK	GRAAGTFDS	no signal	0 of 3	1 of 9
GFTLNSYGIS	KIFSDGRRTVYGDSVK	GRAAGTFDS	no signal	0 of 3	0 of 9
GFTLNSYGIS	VIYSDGRRTFYGCSVK	GRAMGTFDR	no signal	0 of 3	0 of 9
GFTLNSYGIS	VIFVDGMRTFYGDSVK	GRAAGTFDS	no signal	0 of 3	2 of 9
EFTLNSYGIS	VIYSIGRETFYGDSVK	GRAAGTFDS	no signal	0 of 3	1 of 9
GFTLNSYGIS	VIYSDGRRTFYLDYCK	GRAAGTFDS	no signal	0 of 3	1 of 9
GFTLNSGGIS	VITSDGRRTFYGDSVK	GRAAGTFDY	no signal	0 of 3	2 of 9
GFTENSYGMS	VIYSDGRRTFYGDSVK	GRAAGTFDS	no signal	0 of 3	0 of 9
PFTLNSYGIS	VIYSDGRRTPYGDSVQ	GRAAGTFDS	no signal	0 of 3	0 of 9
GFTLNSYGIS	VIYSDLRRTFYGDSVK	GGNAGTFDS	no signal	0 of 3	0 of 9
GFFLNSYGIS	VIYSFGRRTFCGDSVK	GRAAGTFDS	no signal	0 of 3	0 of 9
GFTLNSYEIS	VIYSDGRRTIYGDSVK	GRAAGTFDS	no signal	0 of 3	0 of 9
GFTLNSEGIS	VIYSDGRRTFYGDSVK	ARAAGDFDS	no signal	0 of 3	0 of 9
GFTENSYGYS	VIYSDGRFTFYGDSVK	GRAAGTFDS	no signal	0 of 3	0 of 9
GFTLNSYGIS	LIYDDGRRTFYGDSVK	GRAKGTFDS	no signal	0 of 3	2 of 9
FFTLNSYGIS	VIYSDGRRTFYGDSVK	GRAHGRFDS	no signal	0 of 3	2 of 9
GFLLNSYGIS	VIYSDNRRTFYGDSVK	GRAAGTFDN	no signal	0 of 3	0 of 9
GFTLNSYGIV	VIYSDGRRTFYGDSVV	GRAAGTFWS	no signal	0 of 3	1 of 9
HFTLKSYGIT	VIYSDGRRTFYGDSVK	GRAAGTFDS	no signal	0 of 3	0 of 9
GFTLRSYGIS	VIYSDGENTFYGDSVK	GRAAGTFDS	no signal	0 of 3	1 of 9
GFTMNSYGIS	VIYSKGRRTFYGDSVK	WRAAGTFDS	no signal	0 of 3	5 of 9
GFFLNSYGIS	VIYSDGRRTFYGDSVH	GRAWGTFDS	no signal	0 of 3	0 of 9
GFVLNSYGIS	VIYSDGRRWFYGDSVK	GRAAGVFDS	no signal	0 of 3	2 of 9
GFTSNSYGIS	VAYSDGRRTFYGDIVK	GRAAGTFDS	no signal	0 of 3	1 of 9

Repeated from above, the 14 best binders with a signal in all replicates:

CDR-H1	CDR-H2	CDR-H3	mean, log10 nM	replicates with signal	control signals
TFTLNSYGIS	VIYSDGRRTFYGDSVK	GELAGTFDS	1.16	3 of 3	1 of 9
GFTLNSYGIS	VIYSDGRRTFYGDSVK	GKAAGYFIS	1.16	3 of 3	0 of 9
GFTLNSYGIS	VIYSDGRREFMTDSVK	GRAAGTFDS	1.25	3 of 3	5 of 9
GFTLNSYGMS	VIYSDGRRTFYGDSVK	GRAAGWADS	1.40	3 of 3	1 of 9
GFTLNNYGIS	VIYSDGRRTFYRDSVK	GRAAGTFDS	1.73	3 of 3	3 of 9
PFTLNSYGIS	VIYSDGRRTFYGDSVK	GRAAGTFPS	2.10	3 of 3	1 of 9
MFELNSYGIS	VIYSDGRRTFYGDSVK	GRAAVTFDS	2.61	3 of 3	3 of 9
GFTTTSYGIS	VIYSDGRRTFYGDSVK	GRAAGTWDS	2.87	3 of 3	1 of 9
GYTLNKYGIS	VIYSDGRRTFYGDSVK	GCAAGTFDS	3.07	3 of 3	1 of 9
GFTLNSYGIS	VIFSDGRRTFYGDMVK	GRAAGTWDS	3.16	3 of 3	0 of 9
GNTLLSYGIS	VIYSDGRRTFYGDSVK	RRAAGTFDS	3.20	3 of 3	3 of 9
GLTLNSYGIS	VIYSDGRRTFYGDSVK	LRAAGKFDS	3.37	3 of 3	1 of 9
GFTLNGYGIS	VIYSDGRRTFYGDCVK	GTAAGTFDS	3.42	3 of 3	3 of 9
GLTLNSYGIS	VIYSDGRRRFYGDSVK	GRAAGTQDS	3.45	3 of 3	4 of 9

In this assay the parent's reference entry averaged 0.65; its copy inside this library read 4.11 (one replicate of three).